From PMC5867641, “Function-Oriented Synthesis of Marine Phidianidine Derivatives as Potential PTP1B Inhibitors with Specific Selectivity” (Marine Drugs, 2018) come the findings set out here.

Sequences of proteins named here, by UniProt entry; tags and fusion partners are left off.
UniProt P18031, whole entry: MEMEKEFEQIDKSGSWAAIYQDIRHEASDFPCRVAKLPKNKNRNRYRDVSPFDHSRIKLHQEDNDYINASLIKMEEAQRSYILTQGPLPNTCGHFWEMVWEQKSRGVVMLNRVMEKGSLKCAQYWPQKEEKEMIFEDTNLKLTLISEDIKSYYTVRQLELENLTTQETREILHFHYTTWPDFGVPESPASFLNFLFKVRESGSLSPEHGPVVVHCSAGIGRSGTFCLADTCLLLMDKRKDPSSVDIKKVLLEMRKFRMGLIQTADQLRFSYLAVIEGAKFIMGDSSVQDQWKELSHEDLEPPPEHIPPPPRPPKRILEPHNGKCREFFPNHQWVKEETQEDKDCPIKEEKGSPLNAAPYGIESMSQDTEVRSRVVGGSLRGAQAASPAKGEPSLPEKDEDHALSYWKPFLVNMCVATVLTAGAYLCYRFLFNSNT
UniProt P17706, whole entry: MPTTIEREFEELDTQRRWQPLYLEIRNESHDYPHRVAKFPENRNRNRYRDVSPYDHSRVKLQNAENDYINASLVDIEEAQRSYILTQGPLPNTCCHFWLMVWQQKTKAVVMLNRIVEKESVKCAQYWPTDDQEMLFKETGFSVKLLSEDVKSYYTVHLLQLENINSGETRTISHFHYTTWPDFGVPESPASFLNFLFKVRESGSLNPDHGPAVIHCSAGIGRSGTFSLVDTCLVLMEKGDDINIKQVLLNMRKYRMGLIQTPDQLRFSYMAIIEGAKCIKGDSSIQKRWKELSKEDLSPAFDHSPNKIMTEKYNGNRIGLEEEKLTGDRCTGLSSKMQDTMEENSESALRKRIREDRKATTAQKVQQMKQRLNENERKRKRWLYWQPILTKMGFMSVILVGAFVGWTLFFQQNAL

For experiment [1], the target named is PTP1B (Homo sapiens, UniProt P18031). The experiment is described as follows: PTP1B inhibition assay with p-nitrophenyl phosphate (pNPP) as substrate. To be noted: read-out: IC50 on PTP1B, dose-response run when inhibition >50% at 20 μM.
Experiment [2] addresses T-cell protein tyrosine phosphatase (TCPTP) (Homo sapiens, UniProt P17706). The experiment is described as follows: TCPTP inhibition assay (selectivity). Format: biochemical. To be noted: 20 μM compound, 2% DMSO.

The structures appear in SMILES notation.

For `c1ccc2c(Cc3noc(Cc4c[nH]c5ccccc45)n3)c[nH]c2c1`, the IC50 in experiment [1] came out at 5.8 µM. Besides, the “% Inhibition (20 μM) on TCPTP” value in experiment [2] came to 55.17%.
On the same counts, the results for `Clc1ccc2[nH]cc(Cc3nc(Cc4c[nH]c5ccccc45)no3)c2c1` are 7.9 µM and 38.29%.
Taken in the same sequence, the figures for `Clc1ccc2c(Cc3nc(Cc4c[nH]c5ccccc45)no3)c[nH]c2c1` were 8.7 µM and 54.35%.
Consider `CCCCc1ccc(C(=O)ON=C(N)Cc2c[nH]c3ccccc23)cc1`, for which the half-inhibitory concentration (IC50) in experiment [1] was > 20 µM.

What is called IC50 is the midpoint of a concentration-inhibition curve.
